{
  "sequences": {"note": "By UniProt entry, the sequences of proteins in these tests, tags left out. Residues count along the entry.", "UniProt Q72HI5, 1-150": "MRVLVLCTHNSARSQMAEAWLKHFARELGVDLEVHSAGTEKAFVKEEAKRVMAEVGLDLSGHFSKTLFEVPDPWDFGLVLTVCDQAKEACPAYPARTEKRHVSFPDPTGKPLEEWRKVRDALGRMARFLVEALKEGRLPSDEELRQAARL"},
  "source": "paper PMC8949286",
  "about": "“A New Strategy for As(V) Biosensing Based on the Inhibition of the Phosphatase Activity of the Arsenate Reductase from Thermus thermophilus” (International Journal of Molecular Sciences, 2022)",
  "key": {"[1]": {"biological_target": "T1, TtArsC (Thermus thermophilus, UniProt Q72HI5)", "assay": "pNPP phosphatase assay, A405, nonlinear fit to non-competitive model", "type": "biochemical", "conditions": "pNPP 0.25-200 mM, As(V) 0-20 µM, 4 µM enzyme, 20 mM Tris-HCl pH 7, 60 °C"}, "[2]": {"biological_target": "T1, TtArsC", "assay": "pNPP phosphatase assay, A405, dose-response fit with Hill slope", "conditions": "40 mM pNPP, As(V) 0-100 µM, pH 7, 60 °C"}},
  "data": [
    {"smiles": "O=[As](O)(O)O", "values": [
      {"measurement": "Ki", "setting": "[1]", "value": 15.2, "unit": "µM"},
      {"measurement": "IC50", "setting": "[2]", "value": 13.2, "unit": "µM"}
    ]}
  ]
}
